The assay concerns subjects with ALS. Put plainly: Phase I Treg/IL-2 trial: serum analytes by ELISA and Appel ALS clinical score. It is filed as in vivo, human. The source says:
For the phase I Treg/IL-2 trial, three subjects with ALS were selected based on their differing sites of disease onset and progression rates. Specifically, three patients with arm, bulbar, and leg-onset ALS, respectively, were enrolled in the trial
Subjects with ALS underwent Treg therapy. In brief, Treg therapy included taking T-regulatory cells (Tregs) from the patient (leukapheresis), increasing the cell number in a lab, and returning the Tregs in monthly intravenous (IV) infusions back to the same patient (dose of 1×10^6 cells/kg), plus three times per week subcutaneous interleukin-2 injections (2×10^5 IU/m^2/injection).
For the phase I Treg/IL-2 trial, patients underwent a total of 8 infusions of expanded autologous Tregs with concomitant subcutaneous IL-2 injections. Four Treg infusions were administered every 2 weeks at an early stage of the disease, followed by 4 Treg infusions administered every 4 weeks at a later stage. IL-2 was administered subcutaneously 3 times weekly beginning the day after the first Treg infusion and continued throughout the study period.
For both trials, patients were closely monitored for adverse effects and changes in disease progression rates. To monitor the responsiveness of the ALS patients to treatment, ALSFRS-R and/or AALS scoring and pulmonary function tests (e.g., FVC) were performed immediately before each Treg infusion, every 2 weeks during each round of infusions, and monthly after each round.
Serum was obtained from groups of people including those diagnosed with amyotrophic lateral sclerosis (ALS) and healthy volunteers. Serum was collected from blood drawn from a patient according to standard procedures in the art. The resulting serum was subjected to an enzyme-linked immunosorbent assay (ELISA) to assess biomarker (e.g., analyte) concentration in serum of the patient. ELISA was performed according to manufacturer's instructions.
Immune-based biomarker concentrations were assessed in serum samples collected from ALS patients and healthy control (HC) subjects according to the methods described in Section 7.2. Concentrations of the biomarkers were determined before and throughout the duration of ALS therapy which was administered according to the methods described in Section 7.1. Specifically, the concentration of inflammatory analytes (CCL2, IL- 18), oxidative stress (OS) analytes (4-HNE and MDA), and analytes associated with neuronal structural integrity (Nf-L and pNf-H) were assessed in serum collected from the patients and HC subjects. As understood herein, an analyte is a substance or chemical constituent that is determined in an analytical procedure. Analytes detected by ELISA, as used in the exemplary methods herein, are typically proteins, for example, cytokines, chemokines, immunoglobulins, hormones, and the like. To analyze the detection and quantification of the target analytes of the present example, comparisons were performed using ANOVA for more than 2 groups or Student's t-test for two groups. ANOVA was presented with the degrees of freedom, F value, and p value and Student's t-test was presented with a p value. Correlation was done using Spearman Rank Order in SigmaStat software and presented with a rho and p values.
For orientation: An ELISA detects its analyte on a solid surface through an enzyme-linked reagent.

The mark [1] stands for this setting: end of study, Treg infusions ceased and only IL-2 continued.
The mark [2] stands for this setting: six-month Treg washout period, subjects receiving only IL-2.

Regarding interleukin-2 [IL-2], under setting [1], the CCL2 serum levels entry is on record as “gradually increased again” and the IL-18 serum levels entry is recorded as “gradually increased again”. In addition, under setting [2], the “Appel ALS clinical score (AALS)” value is recorded as “deterioration”, the CCL2 serum levels result is reported as “rose toward the baseline level” and the IL-18 serum levels entry was “rose toward the baseline level”. The disease progression entry (subject three, Treg therapy stopped and only IL-2 administered) is “progressed again”.

These data come from patent US20260276655A1, “BIOMARKERS OF AMYOTROPHIC LATERAL SCLEROSIS AND USES THEREOF” (The Methodist Hospital, priority 2023, published 2026).
